Patent US20250313563A1, “GLYCOGEN SYNTHASE KINASE 3 INHIBITORS AND USES THEREOF” (The Broad Institute, Inc., priority 2022, published 2025)
Like-named read-outs stand apart in the source and are kept apart here.

Chains of the proteins cited; added tags and fusions are not shown.
UniProt P49841, whole entry: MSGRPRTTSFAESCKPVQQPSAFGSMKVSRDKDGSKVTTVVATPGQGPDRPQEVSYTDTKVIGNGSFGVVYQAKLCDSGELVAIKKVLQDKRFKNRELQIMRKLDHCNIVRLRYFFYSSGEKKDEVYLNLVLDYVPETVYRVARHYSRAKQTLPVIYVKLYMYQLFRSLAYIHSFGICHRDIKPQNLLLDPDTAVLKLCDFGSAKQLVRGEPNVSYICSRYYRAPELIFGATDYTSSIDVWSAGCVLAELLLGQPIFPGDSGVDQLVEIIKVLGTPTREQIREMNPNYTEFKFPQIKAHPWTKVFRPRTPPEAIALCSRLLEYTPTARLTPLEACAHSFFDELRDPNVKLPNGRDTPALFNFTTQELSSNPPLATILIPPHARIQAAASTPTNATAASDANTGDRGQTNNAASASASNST
UniProt P49840, whole entry: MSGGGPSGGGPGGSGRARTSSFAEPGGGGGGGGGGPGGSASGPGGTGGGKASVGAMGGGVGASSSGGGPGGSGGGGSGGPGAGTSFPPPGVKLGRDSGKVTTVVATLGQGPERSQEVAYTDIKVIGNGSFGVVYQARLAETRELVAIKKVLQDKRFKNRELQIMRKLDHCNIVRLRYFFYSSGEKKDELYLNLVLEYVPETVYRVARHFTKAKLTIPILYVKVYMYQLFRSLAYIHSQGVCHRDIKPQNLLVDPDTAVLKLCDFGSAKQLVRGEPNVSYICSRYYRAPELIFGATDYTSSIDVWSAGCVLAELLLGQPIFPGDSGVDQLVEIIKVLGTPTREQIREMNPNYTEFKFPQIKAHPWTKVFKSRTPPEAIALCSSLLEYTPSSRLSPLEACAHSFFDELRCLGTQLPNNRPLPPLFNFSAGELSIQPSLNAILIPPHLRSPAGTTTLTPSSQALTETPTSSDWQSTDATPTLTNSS

Tests used:
[1] = biological target: GSK3b (GST-full length GSK3b) (Homo sapiens (Human), UniProt P49841); assay: GSK3b TR-FRET kinase assay; assay type: biochemical
[2] = biological target: GSK3α (GST-full length GSK3α) (Homo sapiens (Human), UniProt P49840); assay: GSK3α TR-FRET kinase assay; assay type: biochemical
[3] = read-out: GSK3-B TR-FRET BIOCHEMICAL (TR-FRET), GMean, IC50, 1 nM GSK3b, 2 μM ATP, 30 minute preincubation, geometric mean
[4] = read-out: GSK3-A TR-FRET BIOCHEMICAL (TR-FRET), GMean, IC50, 1 nM GSK3α, 4 μM ATP, 30 minute preincubation, geometric mean
[5] = read-out: GSK3-B TR-FRET BIOCHEMICAL (TR-FRET), IC50, 1 nM GSK3b, 2 μM ATP, 30 minute preincubation (Table 16)
[6] = read-out: GSK3-A TR-FRET BIOCHEMICAL (TR-FRET), IC50, 1 nM GSK3α, 4 μM ATP, 30 minute preincubation (Table 16)
[7] = read-out: GSK3-B TR-FRET BIOCHEMICAL (TR-FRET);, 1 nM GSK3b, 2 μM ATP, 30 minute preincubation, Table 16
[8] = read-out: GSK3-A TR-FRET BIOCHEMICAL (TR-FRET);, 1 nM GSK3α, 4 μM ATP, 30 minute preincubation, Table 16

IC50 [1, 3] [nM] | IC50 [2, 4] [nM] | IC50 [1, 7] [nM] | IC50 [2, 8] [nM] | SMILES | other results
> 5000 | 1000 to 5000 |  |  | CC[C@@]1(c2cccc(-c3ccncc3C)c2)C2=C(C[C@]3(CCOC3)NC2=O)Nc2n[nH]cc21 | 
 |  |  |  | CCC1(c2cccc(N(CC3CCCC3)C(C)=O)c2)C2=C(CC(C)(C)CC2=O)Nc2n[nH]cc21 (centres unmarked) | IC50 [1, 5]: < 100 nM; IC50 [2, 6]: < 100 nM
> 5000 | 100 to 1000 |  |  | CC[C@@]1(c2cccc(N(C)c3ncccn3)c2)C2=C(CC(C)(C)NC2=O)Nc2n[nH]cc21 [Compound 943964] | 
< 100 | < 100 |  |  | CC(C)(C)Cc1[nH]nc2c1[C@]1(CCc3c(F)cccc31)C1=C(CC(C)(C)CC1=O)N2 | 
 |  | 100 to 1000 | < 100 | CCC1(c2cccc(-c3cc(OC)ncn3)c2)C2=C(CC(C)(C)CC2=O)Nc2n[nH]cc21 (centres unmarked) | 
1000 to 5000 | 100 to 1000 |  |  | CC[C@]1(c2cccc(S(=O)(=O)C(C)C)c2)C2=C(CC(C)(C)NC2=O)Nc2n[nH]cc21 | 
 |  |  |  | CCC1(c2cccc(S(=O)(=O)CC3CC3)c2)C2=C(CC(C)(C)CC2=O)Nc2n[nH]cc21 (centres unmarked) [Compound 917150] | IC50 [1, 5]: < 100 nM; IC50 [2, 6]: < 100 nM
 |  | 100 to 1000 | < 100 | CC[C@]1(c2cccc(-c3c(F)cncc3OC)c2)C2=C(CC(C)(C)CC2=O)Nc2n[nH]cc21 | 
> 5000 | 1000 to 5000 |  |  | CC[C@]1(c2cccc(-c3ccncn3)c2)C2=C(CC(C)(C)CC2=O)Nc2n[nH]cc21 | 
100 to 1000 | < 100 |  |  | CC[C@]1(c2ccccc2)C2=C(CC(C)(C)CC2=O)Nc2n[nH]c(C(F)F)c21 | 
 |  | > 5000 | > 5000 | CC[C@@]1(c2cccc(-c3ccnc(C)c3)c2)C2=C(CC(C)(C)[C@@H](F)C2=O)Nc2n[nH]cc21 | 
 |  | > 5000 | > 5000 | CC[C@]1(c2cccc(C(F)(F)F)c2)C2=C(Nc3n[nH]cc31)C(C)(C)NC2=O | 
 |  | 100 to 1000 | < 100 | COc1ccc(S(=O)(=O)N2CCC[C@]3(CC2)C2=C(CC(C)(C)CC2=O)Nc2n[nH]cc23)cc1 | 
 |  |  |  | CCC1(c2cccc(N(C)c3cccc(C)n3)c2)C2=C(CC(C)(C)CC2=O)Nc2n[nH]cc21 (centres unmarked) | IC50 [1, 5]: 100 to 1000 nM; IC50 [2, 6]: < 100 nM
 |  | 1000 to 5000 | 100 to 1000 | CC[C@@]1(c2cccc(-c3cncn3C(C)C)c2)C2=C(CC(C)(C)CC2=O)Nc2n[nH]cc21 | 
 |  | 100 to 1000 | < 100 | CC[C@]1(c2cccc(C(F)(F)F)c2)C2=C(C[C@]3(CCN(C)C3=O)CC2=O)Nc2n[nH]cc21 | 
 |  | 100 to 1000 | < 100 | CCC1(c2cccc(-c3ncnc(C)c3C)c2)C2=C(CC(C)(C)CC2=O)Nc2n[nH]cc21 (centres unmarked) | 
< 100 | < 100 |  |  | CCC1(c2cccc(C(F)(F)F)c2)C2=C(CC(C)(C)CC2=O)Nc2n[nH]cc21 (centres unmarked) [Compound 790754] | 
< 100 | < 100 |  |  | CCC1(c2cccc(S(=O)(=O)C(C)C)c2)C2=C(CC(C)(C)NC2=O)Nc2n[nH]c(C)c21 (centres unmarked) [Compound 947876] | 
 |  | > 5000 | > 5000 | CC[C@@]1(c2cccc(-c3ccnc(C)c3OC)c2)C2=C(CC(C)(C)CC2=O)Nc2n[nH]cc21 | 
 |  |  |  | CC[C@@]1(c2cccc(C(F)(F)F)c2)C2=C(C[C@@H](C(C)(C)C)NC2=O)Nc2n[nH]cc21 | IC50 ([1]; read-out: GSK3-B (TR-FRET 1 mM ATP), GMean, IC50, 1 mM ATP, geometric mean): 1000 to 5000 nM; IC50 ([1]; read-out: GSK3-B TR-FRET BIOCHEMICAL (TR-FRET), IC50, 1 nM GSK3b, 2 μM ATP, 30 minute preincubation): 100 to 1000 nM; IC50 ([2]; read-out: GSK3-A (TR-FRET 1 mM ATP), GMean, IC50, 1 mM ATP, geometric mean): 100 to 1000 nM; IC50 ([2]; read-out: GSK3-A TR-FRET BIOCHEMICAL (TR-FRET), IC50, 1 nM GSK3α, 4 μM ATP, 30 minute preincubation): < 100 nM
> 5000 | 1000 to 5000 |  |  | CC[C@]1(c2cccc(-c3ccnc4cnccc34)c2)C2=C(CC(C)(C)NC2=O)Nc2n[nH]cc21 | 
 |  |  |  | CC[C@@]1(c2cccc(-c3cnn4c3CC(C)(C)CC4)c2)C2=C(CC(C)(C)NC2=O)Nc2n[nH]cc21 | IC50 [1, 5]: > 5000 nM; IC50 [2, 6]: 1000 to 5000 nM
 |  |  |  | CC[C@]1(c2cccc(-c3ccnc(C)c3)c2)C2=C(CC(C)(C)C2=O)Nc2n[nH]cc21 | IC50 [1, 5]: > 5000 nM; IC50 [2, 6]: 1000 to 5000 nM
 |  | 100 to 1000 | < 100 | CC[C@]1(c2cccc(-c3c(C)cncc3C)c2)C2=C(CC(C)(C)CC2=O)Nc2n[nH]cc21 | 
> 5000 | 1000 to 5000 |  |  | CCC1(c2cccc(CNC)c2)C2=C(CC(C)(C)CC2=O)Nc2n[nH]cc21 (centres unmarked) | 
100 to 1000 | 100 to 1000 |  |  | CC1(C)CC(=O)C2=C(C1)Nc1n[nH]c(CC(F)(F)F)c1[C@]21CCc2c(F)cccc21 | 
